{"source": "patent US20090094703A1", "about": "“Novel medulloblastoma-forming cell line” (The Hospital For Sick Children, priority 2007, published 2009)", "tested_on": "Hh signaling", "details": "5 μM, 7 days, serum free Ptc1+/- medulloblastoma cell lines", "procedure": "C57/B6 Trp53^+/− mice (Jackson Laboratory, Maine, USA) and Ptc1^+/− mice were mated to generate a Ptc1^+/−p53^+/− breeding colony. Mice with symptoms of medulloblastoma, domed appearance of the head, unsteadiness of gait, were sacrificed by cervical dislocation. Brains were removed and tumours microdissected, dissociated by gentle pipetting in PBS and filtered through a […] nylon filter. Cells were grown in serum free conditions with 20 ng/ml epidermal growth factor (EGF) and 20 ng/ml basic fibroblast growth factor (FGF) as previously described (Diamandis, P. et al. Nat Chem Biol 3, 268-73 (2007); Reynolds, B. A. & Weiss, S. Science 255, 1707-10 (1992)). […] 50 μl fresh media and inhibitor was added every second day. For differentiation analysis, cells were grown in DMEM/F12 media supplemented with 10% foetal bovine serum for 7 days. MTT assays were performed as previously described (Diamandis, P. et al. Nat Chem Biol 3, 268-73 (2007))\nHh and Notch target genes were analyzed by RT-PCR and/or Western blot by standard procedures using the primers in the following Table 2."}
{"molecule": "CC1=C2C[C@H]3[C@@H](CC=C4C[C@@H](O)CC[C@@]43C)[C@@H]2CC[C@]12O[C@@H]1C[C@H](C)CN[C@H]1[C@H]2C", "note": "[Cyclopamine, cyclopamine]", "values": [{"measurement": "ratio of Gli3 in its repressor (Rep) form", "result": "increased"}]}
